Measured values published in patent publication US20260382572A1, “TREATMENT OF FRONTOTEMPORAL DEMENTIA OR FRONTOTEMPORAL LOBAR DEMENTIA” (published 2026).
Values joined by “and” are separate entries in the source; they are usually repeats but may differ in a detail not shown here. Equal values may be shown once.

Amino acid sequences for entries named in this document (tags omitted). Residues count along the entry.
UniProt P35354, 18-604 limits assumed: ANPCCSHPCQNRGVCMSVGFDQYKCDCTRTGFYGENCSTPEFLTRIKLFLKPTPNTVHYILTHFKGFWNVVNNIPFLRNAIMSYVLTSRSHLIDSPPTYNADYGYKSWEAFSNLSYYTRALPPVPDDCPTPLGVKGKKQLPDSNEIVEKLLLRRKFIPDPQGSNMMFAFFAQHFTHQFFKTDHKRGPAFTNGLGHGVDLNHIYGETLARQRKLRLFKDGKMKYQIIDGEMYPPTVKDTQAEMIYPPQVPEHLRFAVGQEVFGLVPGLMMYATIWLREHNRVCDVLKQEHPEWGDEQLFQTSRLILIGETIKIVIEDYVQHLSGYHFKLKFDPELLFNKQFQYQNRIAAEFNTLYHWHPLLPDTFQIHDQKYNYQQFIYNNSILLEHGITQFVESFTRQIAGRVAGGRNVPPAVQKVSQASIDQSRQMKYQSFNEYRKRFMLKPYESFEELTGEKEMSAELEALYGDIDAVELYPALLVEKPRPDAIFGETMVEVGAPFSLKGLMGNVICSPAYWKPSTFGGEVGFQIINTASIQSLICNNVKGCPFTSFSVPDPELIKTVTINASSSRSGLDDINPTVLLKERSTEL

Legend:
[1] = Plasma pharmacokinetics, intraperitoneal and oral administration; conditions: male C57BL/6 mice; for AUClast / Cmax / T1/2 / Tmax: plasma
Source text: Example 3.4. Pharmacokinetic studies by intraperitoneal and oral administration.

[2] = system: aged mice with hTauP301L tauopathy; experiment: hTauP301L FTD model, aged mice: Object location test (OLT); conditions: aged (16-18 months) mice; oral 50 mg/kg, 35 days
Experimental: FIG. 10. Compound 1 reduces hyperphosphorylated tau species and improves cognitive behaviour in aged (16-18 months old) mice with hTauP301L tauopathy after days oral administration (50 mg/kg/day). (A). Representative images of hyperphosphorylated tau intensity measured by AT8 and AT180 antibodies in three different regions of the hippocampus (GD, CA3 and CA1) (n=12). (B) Quantification AT8 intensity, normalized to CA3 intensity of Sham animals. (C) Quantification of AT180 intensity, normalized to CA3 intensity of Sham animals. (D) Experimental protocol of T-maze alternation test and (E) Object Location test (OLT). (F) Average of the percentage of success in seven independent attempts (n=6).
In vivo hTau301L model was induced by stereotaxic injection of AAV-hTauP301L (AAV-hTau) particles as described in [Luengo, Enrique et al. “Implication of type 4 NADPH oxidase (NOX4) in tauopathy.” Redox biology vol. 49 (2022): 102210. doi:10.1016/j.redox.2021.102210]. Control animals were injected with AAV-GFP. […]
Example 2.6. […] 35 Days of treatment with a single oral dose of Compound 1 at 50 mg/kg reduced hyperphosphorylated tau levels induced by hTauP301L, measured by AT8 and AT180 antibodies in DG, CA3 and CA1 regions of the hippocampus (FIG. 10A-C). […]

[3] = system: hyperphosphorylated tau in primary cultures of neurons expressing human tau with P301L mutation; experiment: Hyperphosphorylated tau (AT8) in primary neuronal cultures treated with AAV-hTauP301L; conditions: added every other day for 8 days, compound 1 at 30 μM
Source text: (§1) FIG. 6. Compound 1 reduces hyperphosphorylated tau species and tau seeding in vitro. Compound 1 reduces hyperphosphorylated tau levels (AT8) in primary neuronal cultures of mice after 8 days of AVV-hTauP301L treatment. Dimethyl fumarate was used as a positive control (DMF). (A) Representative images, AT8 is shown in green and Map2, marker of neurons, is shown in white. […] Compound 1 reduced tau seeding in HEK-293 tau FRET biosensor measured by flow cytometer (C). Tg4510 mouse brain homogenate was used as aggregant stimuli. […] Data represent mean±SEM.
Immunofluorescence labelling in in vitro and in vivo samples was performed as described in [Luengo, Enrique et al. “Implication of type 4 NADPH oxidase (NOX4) in tauopathy.” Redox biology vol. 49 (2022): 102210. doi:10.1016/j.redox.2021.102210].
Example 2.4. Compound 1 reduces levels of pathological hyperphosphorylated tau in primary cultures of neurons expressing human tau protein with P301L mutation. At day 10 after culture, neurons were treated with PBS or AAV-hTauP301L, and thereafter compound 1 (30 μM) was added every other day for 8 days. At the end of the experiment (day 18), neurons were fixed in 2% paraformaldehyde (Sigma-Aldrich) for 15 minutes. Thereafter, hyperphosphorylated tau levels were evaluated by immunofluorescence using AT8 antibody (FIG. 6A). […]

[4] = Liver microsome stability, mouse; conditions: mouse liver microsomes
Source text: (§2) Example 3.3. Stability in mouse, dog, and human liver microsomes. […] In this line, results in two different species correlated with human microsomes. […] This correlation is widely described for different drugs in which mouse metabolism is higher due to the high blood flow and quick metabolic status of mice.

[5] = system: tau seeding in HEK-293 tau FRET biosensor; experiment: Tau seeding assay in HEK-293 tau FRET biosensor (Tg4510 mouse brain homogenate); conditions: increasing concentrations
Source text: as §1
Tau seeding assay in HEK-293 was evaluated following a previously described protocol [Holmes et al. “Proteopathic tau seeding predicts tauopathy in vivo.” Proceedings of the National Academy of Sciences 2014, 111, E4376-E4385].
In a second set of experiments, HEK-293 FRET biosensor containing tau repeating domains was used to determine if Compound 1 could reduce tau aggregates. For this, cells were treated with Tg4510 mouse brain homogenate as an aggregant stimulus and co-incubated with increasing concentrations of the compound. Compound 1 was able to reduce tau seeding ability following a concentration dependent effect (FIG. 6C).

[6] = target: human cyclooxygenase-2 (hCOX-2) (Homo sapiens, UniProt P35354); experiment: SafetyScreen44 panel: human cyclooxygenase-2; conditions: read-out: IC50 (hCOX-2)
Experimental: Example 3. Safety study with respect to Compound 1. Compound 1 was assayed in 44 different biological targets described as source of potential secondary effects, SafetyScreen44 panel (outsourced at Eurofins Discovery).

[7] = Liver microsome stability, dog; conditions: dog liver microsomes
Source text: as §2

Question: Which “time of peak plasma concentration” value ([1]; i.p. 20 mg/kg) does the source give for `COc1ccc2c(c1)CC(c1c[nH]c3ccc(OC)cc13)N2` (stereo not shown) here?
Answer: The value was 15 min.

Question: What about the “time of peak plasma concentration” value ([1]; oral 50 mg/kg) of the same molecule?
Answer: The value was 30 min.

Question: What about the AUClast ([1]; IP 20 mg/kg) of the same molecule?
Answer: The AUClast was 11697.95 ng·h/mL.

Question: What about the Cmax ([1]; IP 20 mg/kg) of the same molecule?
Answer: The Cmax was 10931.75 ng/mL.

Question: What about the T1/2 ([1]; IP 20 mg/kg) of the same molecule?
Answer: Its T1/2 is 224 min.

Question: What about the Tmax ([1]; IP 20 mg/kg) of the same molecule?
Answer: Its Tmax is 15 min.

Question: What about the AUClast ([1]; PO 50 mg/kg) of the same molecule?
Answer: The AUClast was 4531.29 ng·h/mL.

Question: What about the Cmax ([1]; PO 50 mg/kg) of the same molecule?
Answer: Its Cmax is 3019.19 ng/mL.

Question: And the T1/2 ([1]; PO 50 mg/kg)?
Answer: The T1/2 was 496 min.

Question: What about the Tmax ([1]; PO 50 mg/kg) of the same molecule?
Answer: The Tmax was 30 min.

Question: And the “spatial memory loss, OLT” value [2]?
Answer: The value was “prevented”.

Question: And the AT8 intensity levels [3]?
Answer: The AT8 intensity levels was “reduced AT8 intensity levels”.

Question: And the T1/2 [4]?
Answer: Its T1/2 is 3.7 min and 3.7 ± 0.1 min.

Question: What about the tau seeding ability [5] of the same molecule?
Answer: Its tau seeding ability is “able to reduce tau seeding ability following a concentration dependent effect”.

Question: And the IC50 [6]?
Answer: The IC50 was 260 nM.

Question: And the T1/2 [7]?
Answer: Its T1/2 is 15.4 min and 15.4 ± 0.03 min.
